Substitutions are numbered along the chain they refer to.
B1: F4-1-H1L1: humanized antibody of F4-1: huF4-1VH1 + huF4-1VL1 (antibody)
heavy: EVQLVQSGAEVKKPGASVKVSCKASGYTFTDNYINWVRQAPGQRLEYMGWIYPGSGNNKFNEKFKGRVTITVDTSASTAYMELSSLRSEDTAVYYCARDYPFPSYHYGMDYWGQGTTVTVSSASTKGPSVFPLAPSSKSTSGGTAALGCLVKDYFPEPVTVSWNSGALTSGVHTFPAVLQSSGLYSLSSVVTVPSSSLGTQTYICNVNHKPSNTKVDKKV[human IgG1 Fc not spelt out]
light: DIQMTQSPSSLSASVGDRVTITCSASSSVSYIHWFQQKPGKAPKLWIYSTSNLASGVPSRFSGSGSGTDFTLTISSLQPEDFATYYCQQRSSYPPTFGGGTKVEIKRTVAAPSVFIFPPSDEQLKSGTASVVCLLNNFYPREAKVQWKVDNALQSGNSQESVTEQDSKDSTYSLSSTLTLSKADYEKHKVYACEVTHQGLSSPVTKSFNRGEC
B2: F4-18-H3L1: humanized antibody of F4-18: huF4-18VH3 + huF4-18VL1 (antibody)
heavy: EVQLVQSGAEVVKPGASVKMSCKTSGYTFTSYGINWVRQRPGQGLEWIGYIYLGSDYTEYNEKFKGRVTLTSDTSASTAYMELSSLRSEDTAVYYCARSAGSLFAYWGQGTLVTVSSASTKGPSVFPLAPSSKSTSGGTAALGCLVKDYFPEPVTVSWNSGALTSGVHTFPAVLQSSGLYSLSSVVTVPSSSLGTQTYICNVNHKPSNTKVDKKV[human IgG1 Fc not spelt out]
light: DIQMTQSPSSLSASVGDRVTITCRASQDIGITLNWYQQKPGKAPKRLIYATSSLDSGVPSRFSGSRSGTDYTLTISSLQPEDFATYYCLQYASSPYTFGGGTKVEIKRTVAAPSVFIFPPSDEQLKSGTASVVCLLNNFYPREAKVQWKVDNALQSGNSQESVTEQDSKDSTYSLSSTLTLSKADYEKHKVYACEVTHQGLSSPVTKSFNRGEC
B3: F4-18-H4L2: humanized antibody of F4-18: huF4-18VH4 + huF4-18VL2 (antibody)
heavy: B2 heavy with A100G
light: B2 light with Y36L
B4: F4-18-H1L3: humanized antibody of F4-18: huF4-18VH1 + huF4-18VL3 (antibody)
heavy: B2 heavy with V12K, M20V, T24A, R40A, G44R, I48M
light: B2 light with M4L, Y36L, P44I, T69S
B5: F4-18-H3L2: humanized antibody of F4-18: huF4-18VH3 + huF4-18VL2 (antibody)
heavy: B2 heavy
light: B2 light with Y36L
B6: F4-18-H3L4: humanized antibody of F4-18: huF4-18VH3 + huF4-18VL4 (antibody)
heavy: B2 heavy
light: B2 light with M4L, Y36L, K39E, K42G, P44I, S60K, T69S
B7: F4-18-H5L1: humanized antibody of F4-18: huF4-18VH5 + huF4-18VL1 (antibody)
heavy: B2 heavy with A105G
light: B2 light
B8: F4-18-H4L1: humanized antibody of F4-18: huF4-18VH4 + huF4-18VL1 (antibody)
heavy: B2 heavy with A100G
light: B2 light
B9: F4-18-H3L3: humanized antibody of F4-18: huF4-18VH3 + huF4-18VL3 (antibody)
heavy: B2 heavy
light: B2 light with M4L, Y36L, P44I, T69S
B10: F4-18-H1L2: humanized antibody of F4-18: huF4-18VH1 + huF4-18VL2 (antibody)
heavy: B2 heavy with V12K, M20V, T24A, R40A, G44R, I48M
light: B2 light with Y36L
B11: F4-18-H5L2: humanized antibody of F4-18: huF4-18VH5 + huF4-18VL2 (antibody)
heavy: B2 heavy with A105G
light: B2 light with Y36L
B12: F4-18-H5L4: humanized antibody of F4-18: huF4-18VH5 + huF4-18VL4 (antibody)
heavy: B2 heavy with A105G
light: B2 light with M4L, Y36L, K39E, K42G, P44I, S60K, T69S
B13: F4-18-H5L3: humanized antibody of F4-18: huF4-18VH5 + huF4-18VL3 (antibody)
heavy: B2 heavy with A105G
light: B2 light with M4L, Y36L, P44I, T69S
B14: F4-18-H1L4: humanized antibody of F4-18: huF4-18VH1 + huF4-18VL4 (antibody)
heavy: B2 heavy with V12K, M20V, T24A, R40A, G44R, I48M
light: B2 light with M4L, Y36L, K39E, K42G, P44I, S60K, T69S
B15: F4-18-H2L3: humanized antibody of F4-18: huF4-18VH2 + huF4-18VL3 (antibody)
heavy: B2 heavy with V12K, M20V, T24A
light: B2 light with M4L, Y36L, P44I, T69S
B16: F4-18-H2L2: humanized antibody of F4-18: huF4-18VH2 + huF4-18VL2 (antibody)
heavy: B2 heavy with V12K, M20V, T24A
light: B2 light with Y36L
B17: F4-18-H2L4: humanized antibody of F4-18: huF4-18VH2 + huF4-18VL4 (antibody)
heavy: B2 heavy with V12K, M20V, T24A
light: B2 light with M4L, Y36L, K39E, K42G, P44I, S60K, T69S
B18: F4-18-H4L4: humanized antibody of F4-18: huF4-18VH4 + huF4-18VL4 (antibody)
heavy: B2 heavy with A100G
light: B2 light with M4L, Y36L, K39E, K42G, P44I, S60K, T69S
B19: F4-18-H4L3: humanized antibody of F4-18: huF4-18VH4 + huF4-18VL3 (antibody)
heavy: B2 heavy with A100G
light: B2 light with M4L, Y36L, P44I, T69S
B20: M6-H1L3: humanized antibody of M6: huM6VH1 + huM6VL3 (antibody)
heavy: EVQLVQSGAEVKKPGASVKVSCKASGYTFTPYWIEWVRQAPGQGLEWMGEILPGTGRTNYNEKFKGRVTFTADTSTNTVYMELSSLRSEDTAVYYCARYGDDTSGGYYAVDYWGQGTTVTVSSASTKGPSVFPLAPSSKSTSGGTAALGCLVKDYFPEPVTVSWNSGALTSGVHTFPAVLQSSGLYSLSSVVTVPSSSLGTQTYICNVNHKPSNTKVDKKV[human IgG1 Fc not spelt out]
light: DIVMTQSPATLSLSPGERATLSCRASESVNILGTNLIHWYQQKPGQAPKLLIYHASNLETGIPARFSGSGSRTDFTLTISSLEPEDVAVYYCLQSRKIPWTFGGGTKVEIKRTVAAPSVFIFPPSDEQLKSGTASVVCLLNNFYPREAKVQWKVDNALQSGNSQESVTEQDSKDSTYSLSSTLTLSKADYEKHKVYACEVTHQGLSSPVTKSFNRGEC

The chains behind the UniProt entries cited, without tags or fusion partners. A line that says so, or that is headed by a name, gives the form on record, which may keep a tag or linker.
UniProt P15941, with tags, fused parts or gaps: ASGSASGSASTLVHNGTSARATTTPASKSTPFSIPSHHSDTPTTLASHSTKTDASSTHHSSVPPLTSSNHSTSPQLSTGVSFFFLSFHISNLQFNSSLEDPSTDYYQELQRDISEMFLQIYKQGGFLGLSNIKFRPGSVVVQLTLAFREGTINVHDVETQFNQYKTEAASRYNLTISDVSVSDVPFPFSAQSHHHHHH

test system: CHOK1-cyno-MUC1-C cells; test: FACS-based determination of affinity of chimeric and humanized anti-MUC1-C antibodies; assay type: binding; set-up: key: “+” means that there was binding; “−” means that there was no binding; settings: Table 19-3
Description: HCC827-human-MUC1-C cells (in-house constructed overexpression stably transfected cell strain), CHOK1-cyno-MUC1-C cells (in-house constructed overexpression stably transfected cell strain), and T47D cells (human ductal breast cancer cells) were separately digested and added to a 96-well plate at 1E5 cells/well. After the plate was centrifuged at 300 g for 5 min, the supernatant was discarded, and the cells were washed once with a PBS buffer containing 2% FBS. The antibodies were 5-fold diluted from a starting concentration of 20 μg/mL using a PBS buffer containing 2% FBS to obtain a total of 8 concentration gradients. The antibody samples were added at 100 μL/well, and the cells were resuspended and incubated at 4° C. for 1 h. After the plate was centrifuged at 300 g for 5 min, the supernatant was discarded, and the cells were washed twice with a PBS buffer containing 2% FBS. […] After the plate was centrifuged at 300 g for 5 min, the supernatant was discarded, and the cells were washed twice with a PBS buffer containing 2% FBS. The cells were resuspended in 100 μL of a PBS buffer containing 2% FBS and analyzed using an instrument. […] The experimental process was the same as that in Test Example 1 “FACS-Based Determination of Affinity of Chimeric Antibodies”. In addition, CHOK1-human-MUC1-C cells (in-house constructed overexpression stably transfected cell strain) were used for evaluation.

Row | Molecule | Qualitative determination
1 | B1 | +

same assay, conditions: Table 19-4

Row | Molecule | Qualitative determination
2 | B2 | +
3 | B3 | +
4 | B4 | +
5 | B5 | +
6 | B6 | +
7 | B7 | +
8 | B8 | +
9 | B9 | +
10 | B10 | +
11 | B11 | +
12 | B12 | +

biological target: T1, human MUC1-C-L-his antigen (Homo sapiens, UniProt P15941); test: Determination of affinity of anti-MUC1-C antibodies using Biacore; settings: Biacore 8K, antibody captured on Protein A chip, 1:1 binding model
T1 construct: made in house; host or cells: 293 cells (transient, pTT5 vector)
Description: • 1. Instrument: Biacore 8K, Cytiva • 2. Material: Protein A biosensor chip (Cat. #29127556, Cytiva) • 3.
The affinity of the antibodies of the present disclosure for the human MUC1-C-L-His antigen was determined using a Biacore 8K instrument.
Method: An antibody molecule was affinity-captured by a Protein A biosensor chip, and the antigen molecule, at a certain concentration, was then allowed to flow through the surface of the chip continuously for 180 s, followed by 600 s of natural dissociation. The reaction signals were detected in real time by the Biacore 8K instrument to obtain an association and dissociation curve. After the dissociation in each experimental cycle was complete, the biosensor chip was regenerated with 10 mM glycine-HCl (pH 1.5). Data fitting was performed using the Kinetics 1:1 binding model.

Row | Molecule | ka [M⁻¹ s⁻¹] | kd [s⁻¹]
13 | B13 | 150000 | 0.00351
14 | B14 | 184000 | 0.000943
15 | B15 | 170000 | 0.000835
16 | B16 | 131000 | 0.00343
17 | B17 | 159000 | 0.000915
18 | B18 | 188000 | 0.00165
19 | B19 | 200000 | 0.0015
20 | B20 | 247000 | 0.00432
